This note sets out measurements from ChEMBL document CHEMBL3734667, “Antiviral activity of benzotriazole derivatives. 5-[4-(Benzotriazol-2-yl)phenoxy]-2,2-dimethylpentanoic acids potently and selectively inhibit Coxsackie Virus B5” (Bioorg Med Chem, 2015).

The structures appear in SMILES notation.

The assay is described as follows: Selectivity index, ratio of CC50 for MDBK cells to EC50 for BVDV. Set-up: species or system Bovine viral diarrhea virus 1.

`NC(=O)c1ncn([C@@H]2O[C@H](CO)[C@@H](O)[C@H]2O)n1` [RIBAVIRIN]: the “Ratio CC50/EC50” value is on record as greater than 12.5.
